Measured values published in PubChem BioAssay AID1259422 (The Scripps Research Institute Molecular Screening Center, 2018).
The entries are a selection whose mix differs from that of the whole data set. Calls of active or inactive are those of the source. Cut-off read from the data, not from the text of the source: active = inhibition above about 32%; inactive = the rest.

Assay: TEAD-YAP interaction inhibition, primary screen, TEAD-YAP interaction inhibitor project, luminescence, HEK-TIYL cells (AID 1259422);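 note: 0% = median of test compound wells and 100% = reference inhibitor wells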
Conditions: TEAD-Gal4/YAP UAS-luciferase luminescence, at 9.12 µM, active compounds read high

| Structure (SMILES) | inhibition |
| --- | --- |
| COc1cc(OC)c(C(=O)NCC2(N(C)C)CCCCC2)cc1OC | inactive: -4.9% |
| Cc1ccc(C(=O)O)cc1N(CCCl)CCCl | inactive: -1.68% |
| COc1ccc(CN(CCCl)CCCl)cc1Cl | inactive: 0.25% |
| FC(F)(F)Oc1ccc(NC2CCNCC2)cc1 | inactive: -0.15% |
| CCN1CCC(Nc2ccccc2F)CC1 | inactive: -3.84% |
| CCCOc1ccc(C(=O)NCC2(N(C)C)CCCCC2)cc1OC | inactive: -13.8% |
| Cc1cc(C(=O)NCC2(N3CCOCC3)CCCCC2)c2ccccc2n1 | inactive: 7.62% |
| CN1CCC(Nc2cccc(F)c2)CC1 | inactive: -1.65% |
| COc1cccc(OC)c1CN1CCC(Nc2ccccc2)CC1 | inactive: 1.9% |
| O=C(NCC1(N2CCCCC2)CCCCC1)c1cncc(Br)c1 | inactive: -1.84% |
| CCN1CCC(Nc2ccc(Cl)cc2)CC1 | inactive: -0.42% |
| COc1ccc(CCN2CCC(N(Cc3ccco3)C(C)=O)CC2)cc1 | inactive: 2.87% |
| COc1ccc(NC2CCN(CCc3cccs3)CC2)cc1 | inactive: -4.64% |
| O=C(NCC1(N2CCCCC2)CCCCC1)c1cccc([N+](=O)[O-])c1 | inactive: 7.45% |
| O=C(NCC1(N2CCOCC2)CCCCC1)c1cc(=O)[nH]c2ccccc12 | inactive: 0.41% |
| CN1CCN(CCOC(=O)C(O)(c2ccccc2)c2ccccc2)CC1 | inactive: -4.8% |
| COc1ccccc1/C=C/CN1CCN(C(C)=O)CC1 | inactive: -3.98% |
| CN(C)P(=O)(OC(C)(C)C(Cl)(Cl)Cl)SCCCCl (centres undefined) | inactive: 10.9% |
| COc1ccc(NC2CCN(CCc3ccccn3)CC2)cc1 | inactive: -6.34% |
| CCOC(=O)N1CCC(Nc2ccc(F)cc2)CC1 | inactive: 1.59% |
| CCCN1CCC(Nc2ccc(F)cc2)CC1 | inactive: -4.36% |
| O=C1CCN(Cc2ccccc2)CC1 | inactive: 1.06% |
| CC(=O)N1CCc2ccc(N(C(=O)C(C)(C)C)C3CCN(Cc4ccccc4)CC3)cc21 | inactive: -2.56% |

| Structure (SMILES) | inhibition |
| --- | --- |
| COc1cccc(CN(CCCl)CCCl)c1 | inactive: 10.4% |
| CCOC(=O)N1CCC(Nc2cccc(C)c2)CC1 | inactive: 8.73% |
| COc1ccc(C(=O)NCC2(N3CCCCC3)CCCCC2)cc1 | inactive: -13.8% |
| COc1ccc(C(=O)NCC2(N3CCCCC3)CCCCC2)c(OC)c1OC | inactive: 1.74% |
| CCCN1CCC(Nc2ccc(OC)c(OC)c2)CC1 | inactive: 1.73% |
| N#CC1(Nc2ccccc2)CCN(Cc2ccccc2)CC1 | inactive: 4.61% |
| CC1CN(CCc2ccccc2)CCC1=O (centres undefined) | inactive: -3.58% |
| CCOC(=O)N1CCC(Nc2ccc(OC)cc2)CC1 | inactive: 4.23% |
| CN(CCOC(=O)C(O)(c1ccccc1)c1ccccc1)C(C)(C)C | inactive: 15.5% |
| O=C(O)C1(Nc2ccccc2)CCN(Cc2ccccc2)CC1 | inactive: 5.3% |
| CCCOc1ccc(C(=O)NCC2(N(C)C)CCCCC2)cc1 | inactive: 4.02% |
| CC(C)(C)OC(=O)N1CCC(Nc2ccc(F)cc2F)CC1 | inactive: -0.61% |
| CN1CCC(Nc2ccc(F)c(Cl)c2)CC1 | inactive: -4.34% |
| Fc1ccc(NC2CCN(Cc3ccccc3)CC2)cc1F | inactive: 0.65% |
| COc1ccc(NC2CCN(Cc3ccncc3)CC2)cc1 | inactive: 4.5% |
| CN1CCC(Nc2ccc(Cl)cc2)CC1 | inactive: 3.13% |
| CN(C)C1(CNC(=O)c2cc(=O)[nH]c3ccccc23)CCCCC1 | inactive: 3.88% |
| COc1cc(OC)cc(C(=O)NCC2(N3CCOCC3)CCCCC2)c1 | inactive: 4.89% |
| CCC(CO)(C(=O)OC1CN2CCC1CC2)c1ccccc1 (centres undefined) | inactive: -0.6% |
| Clc1ccc(NC2CCN(Cc3ccccc3)CC2)cc1 | inactive: 8.56% |
| Fc1cccc(NC2CCN(CCc3ccccc3)CC2)c1 | inactive: 3% |
| CCCN1CCC(Nc2ccc(Cl)cc2)CC1 | inactive: -10.3% |
| CN(C)C1(CNC(=O)c2cc3c(s2)CCC3)CCCCC1 | inactive: -3.43% |

| Structure (SMILES) | inhibition |
| --- | --- |
| CN1CCC(Nc2ccccc2Cl)CC1 | inactive: -3.56% |
| CC1CN(Cc2ccccc2)CCC1=O (centres undefined) | inactive: 4.55% |
| [C-]#N.[K+].c1ccc2c(c1)OCCOCCOc1ccccc1OCCOCCO2 | inactive: 4.63% |
| CC(C)(C)OC(=O)N1CCC(Nc2ccc(Cl)cc2Cl)CC1 | inactive: 2.76% |
| CN1CCC(Nc2ccccc2F)CC1 | inactive: 3.12% |
| CCN1CCC(Nc2ccc(F)cc2)CC1 | inactive: 2.07% |
| CCOP(=O)(OCC)SCC(=O)N(CC)CC | inactive: 2.66% |
| CC1CN(C)C(C)CC1Nc1ccccc1 (centres undefined) | inactive: 1.57% |
| O=C(NCC1(N2CCCCC2)CCCCC1)c1ccc([N+](=O)[O-])s1 | inactive: -2.1% |
| COc1cccc(OC)c1CN1CCC(=O)CC1 | inactive: -5.14% |
| COc1ccc(CCN2CCC(Nc3ccc(OC)cc3)CC2)cc1 | inactive: 1.78% |
| CC(=O)N1CCN(C/C=C/c2ccccc2[N+](=O)[O-])CC1 | inactive: 1.89% |
| N#Cc1ccc(C(=O)NCC2(N3CCCCC3)CCCCC2)cc1 | inactive: -0.9% |
| c1ccc(CN2CCC(Nc3ccccc3)CC2)cc1 | inactive: -1.24% |
| CCCN1CCC(Nc2cc(OC)cc(OC)c2)CC1 | inactive: 0.86% |
| NC(=O)C1(Nc2ccccc2)CCN(Cc2ccccc2)CC1 | inactive: -8.21% |
| COc1ccc(C(=O)NCC2(N3CCOCC3)CCCCC2)cc1OC | inactive: -0.7% |
| COc1cc(C(=O)NCC2(N3CCOCC3)CCCCC2)cc(OC)c1C | inactive: 0.23% |
| CN1CCC(Nc2ccc(F)cc2)CC1 | inactive: 3.2% |
| O=C1CCN(CCc2ccccc2)CC1 | inactive: 3.97% |
| CCOC(=O)N1CCC(Nc2ccc(Cl)cc2)CC1 | inactive: 1.97% |
| CCOC(=O)N1CCC(Nc2ccc(C)cc2)CC1 | inactive: 12.8% |
| O=C(NCC1(N2CCOCC2)CCCCC1)c1ccc2c(c1)OCO2 | inactive: 3.57% |
